Source: patent US20100004431A1 (Xencor, published 2010)

The chains behind the UniProt entries cited, without tags or fusion partners. Residues count along the entry.
UniProt P01375, 77-233 limits assumed: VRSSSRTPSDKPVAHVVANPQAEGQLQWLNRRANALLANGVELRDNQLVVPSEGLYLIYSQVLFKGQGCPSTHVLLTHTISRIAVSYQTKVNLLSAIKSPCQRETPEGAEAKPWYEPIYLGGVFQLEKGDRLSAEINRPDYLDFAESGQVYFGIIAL

Target: TNFα (UniProt P01375 77-233)
Test: SPR (Biacore), TNFα on CM5 chip, Fab injected; mean of two runs ± SD

Kd: 2.4 nM
koff: 0.00131 s⁻¹
kon: 547000 M⁻¹ s⁻¹
B1: anti-TNFα H0L0 (A2; infliximab) (Fab, V domains shown)
VH: EVKLEESGGGLVQPGGSMKLSCVASGFIFSNHWMNWVRQSPEKGLEWVAEIRSKSINSATHYAESVKGRFTISRDDSKSAVYLQMTDLRTEDTGVYYCSRNYYGSTYDYWGQGTTLTVSS
VL: DILLTQSPAILSVSPGERVSFSCRASQFVGSSIHWYQQRTNGSPRLLIKYASESMSGIPSRFSGSGSGTDFTLSINTVESEDIADYYCQQSHSWPFTFGSGTNLEVKR
